Antibody variant affinities, Ab-14 heavy chain, assay 1

All variants were tested on one target, the spike HR2 peptide PDVDLGDISGINAS (SARS-CoV-2).

Parent: Ab-14, a human scFv built as VH, a 15-residue (Gly4Ser)3 linker, VL. Only the CDRs of the heavy chain vary.
VH: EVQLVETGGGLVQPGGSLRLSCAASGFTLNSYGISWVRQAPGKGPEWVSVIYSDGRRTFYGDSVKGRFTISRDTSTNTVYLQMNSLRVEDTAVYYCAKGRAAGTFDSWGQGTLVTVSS
VL: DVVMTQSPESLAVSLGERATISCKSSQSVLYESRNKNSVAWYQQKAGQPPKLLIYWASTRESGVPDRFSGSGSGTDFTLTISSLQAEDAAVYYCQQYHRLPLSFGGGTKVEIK

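Phage display of a naive human antibody library on the peptide gave the parent. In library AAYL49, one, two or three CDR residues were substituted; doubles and triples were drawn at random. The scFvs were displayed on barcoded MATa yeast, the peptide on MATalpha yeast. Pairs that bind mate more often; barcode pairs of the diploids are counted by sequencing. The ratio of observed to expected reads was calibrated, replicate by replicate, on BCL2-family standards whose Kd was known from biolayer interferometry. Mating was done three times.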

Positions count from residue 1 of the parent VH; R100E puts E in place of R.
Only single mutants are listed, position by position.
Kd is apparent (estimated from mating counts) and averaged on the log scale over replicates with a signal. Smaller is tighter.
"not detected" marks a missing value. The strain was present, yet no cells mated with the target were sequenced in any replicate, which points to weak or no binding.
Three control strains display no target. For library AAYL49, 15% of the pairings with them gave a signal, with a median of 11 µM and one signal in twenty below 680 nM, so weak values seen in few replicates may be background.

changes	Kd (apparent)	detected
R100E	1.4 nM	3 of 3
A101N	6.0 nM	3 of 3
A101R	not detected	0 of 3
A101W	11 nM	3 of 3
A101C	30 nM	3 of 3
A101H	21 nM	3 of 3
A101L	24 nM	3 of 3
A101D	16 nM	3 of 3
A101F	22 nM	3 of 3
A101K	160 nM	3 of 3
A101I	6.1 nM	3 of 3
A101V	2.3 nM	3 of 3
A101P	3.4 nM	3 of 3
A101Y	150 nM	3 of 3
A101T	35 nM	3 of 3
A101G	750 nM	2 of 3
A101S	not detected	0 of 3
A101M	2.7 nM	3 of 3
A101E	210 nM	3 of 3
A102Y	2.4 nM	3 of 3
A102N	7.1 nM	3 of 3
A102D	520 nM	3 of 3
A102G	27 nM	3 of 3
A102T	not detected	0 of 3
A102K	7.9 µM	2 of 3
A102V	26 nM	3 of 3
A102W	3.9 µM	1 of 3
A102Q	3.2 nM	3 of 3
A102M	4.9 nM	3 of 3
A102F	120 µM	1 of 3
A102I	220 nM	3 of 3
A102P	7.3 nM	3 of 3
A102S	15 nM	3 of 3
A102R	670 nM	1 of 3
A102E	not detected	0 of 3
G103S	9.2 nM	3 of 3
G103Q	not detected	0 of 3
G103T	25 nM	3 of 3
G103E	not detected	0 of 3
G103D	not detected	0 of 3
G103K	13 nM	3 of 3
G103R	39 nM	3 of 3
G103P	920 nM	1 of 3
G103M	14 µM	1 of 3
G103N	13 nM	3 of 3
G103L	not detected	0 of 3
G103Y	4.4 µM	2 of 3
G103H	not detected	0 of 3
G103V	not detected	0 of 3
T104C	33 nM	3 of 3
T104K	15 nM	3 of 3
T104L	5.1 nM	3 of 3
T104H	20 nM	3 of 3
T104V	4.4 µM	2 of 3
T104Q	not detected	0 of 3
T104S	14 nM	3 of 3

The last 4 entries again:

changes	Kd (apparent)	detected
T104H	20 nM	3 of 3
T104V	4.4 µM	2 of 3
T104Q	not detected	0 of 3
T104S	14 nM	3 of 3

From the AlphaSeq antibody data of Engelhart et al. 2022 (doi:10.1038/s41597-022-01779-4), copy in the FLAb collection.